Results published in PubChem BioAssay AID540303 (National Center for Advancing Translational Sciences (NCATS), 2011).
The list shows a part of the results, in another mix than the full data. Inconclusive results are not listed. The source made the active and inactive calls. The call rests on the fitted dose curve; in most records, active means well fitted inhibition curve with a large enough effect; inconclusive means small, poorly fitted or top-dose-only effect; inactive means no such curve, though single readings can be large or run the other way; tested in mouse RAW 264.7 cells.
On the % scale 0 is the no-effect control and ±100 the full control effect.

Assay: qHTS for Inhibitors of Cell Surface uPA Generation; further: nearly all actives have a fitted effect of over 55% in size
Conditions: cell surface uPA generation assay; at 38.3 µM (top of the series)
From the text: The overall objective of this project is to perform a quantitative high throughput screen (qHTS) to identify novel compounds that inhibit the generation of cell surface urokinase activity. The urokinase plasminogen activator (uPA) is one of the two primary endogenous systems that mediate plasminogen activation into plasmin. Members of this system, including uPA and its receptor (uPAR), are overexpressed in several malignant tumors. This system plays a major role in adhesion, migration, invasion and metastasis of cancer cells. Small molecule inhibitors of the uPA system will serve as probes to understand the molecular mechanisms of the uPA cascade and better understanding the microenvironmental circumstances that facilitate the activation of plasminogen by uPA, and finally may provide novel candidate agents for anticancer drug therapy.
[…] Upon inhibition of the uPA activation cascade, the subsequent cell surface uPA activity-dependent translocation of LF into the cytoplasm is inhibited. […]
Cultured RAW 264.7 were dispensed into 1536-well clear bottom, white walled tissue culture plates at a density of 4000 cells/well and were incubated overnight (12-16 h) at 37 C in a 5% CO2 incubator. […] Luminescence was detected using a Perkin Elmer ViewLuxtrade mark plate reader. […]
7.Reading plates by ViewLux with an exposure length of 5 seconds.
In the case of `CCC(=O)N(c1ccccc1)C1(COC)CCN(CCc2cccs2)CC1`, the activity change, negative = inhibition is reported as inactive: -2.35%.
In the case of `CCC(=O)N(c1ccccc1)C1(COC)CCN(CCn2nnn(CC)c2=O)CC1`, the activity change, negative = inhibition is reported as inactive: 2.12%.
